Source: US20210002231A1 (Centre National de la Recherche Scientifique, priority 2018, published 2021)
pEC50: −log10 of the molar value.

By UniProt entry, the sequences of proteins in these tests, tags left out. Where a name states a change or a piece, a line headed by the entry shows the natural chain unless it says otherwise.
UniProt Q9GZQ6: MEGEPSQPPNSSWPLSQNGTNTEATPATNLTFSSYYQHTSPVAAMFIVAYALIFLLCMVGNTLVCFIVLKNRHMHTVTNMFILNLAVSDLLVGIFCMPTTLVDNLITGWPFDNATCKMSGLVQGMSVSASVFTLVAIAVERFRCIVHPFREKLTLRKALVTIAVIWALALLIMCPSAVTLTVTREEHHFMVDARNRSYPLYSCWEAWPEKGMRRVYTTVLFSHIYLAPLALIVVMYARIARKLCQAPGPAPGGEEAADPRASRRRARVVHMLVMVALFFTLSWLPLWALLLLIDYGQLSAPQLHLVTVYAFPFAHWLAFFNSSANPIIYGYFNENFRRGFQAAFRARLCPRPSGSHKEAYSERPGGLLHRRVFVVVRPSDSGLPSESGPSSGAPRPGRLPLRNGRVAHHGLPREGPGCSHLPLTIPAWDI

Biological target: human NPFF1R (Homo sapiens, UniProt Q9GZQ6)
Test: [35S]-GTPγS binding assay
Format: biochemical
Design: expressed in transfected cells
Method: Stimulation by endogenous RF-amide peptides or test compounds for [^35S]-GTPγS binding to membranes from CHO cells expressing human NPFF1R or NPFF2R, were examined as reported. 1.6. Glo-Sensor cAMP Assay cAMP accumulation assay was essentially done as described with the following modifications: HEK293 cells stably expressing cAMP Glosensor-20F were used, with or without additional stable expression of each individual opioid receptor or NPFF1R. The cAMP responses were measured in presence of D-luciferin (1 mM).

Cc1cc(O)cc(C)c1C[C@H](N)C(=O)N[C@H](CCCNC(=N)N)C(=O)N[C@H]1Cc2ccccc2CN(CCC(=O)N[C@@H](CCCN2CCCCC2)C(=O)N[C@@H](Cc2ccccc2)C(N)=O)C1=O [KGFF08, H-Dmt-D-Arg-Aba-β-Ala-Apa-Phe-NH2]
pEC50: < 5.00
